# Target: T1, recombinant hPD1 (Sino Biologicals, reference 10377-H08H) (human, UniProt Q15116, in part)
# Protein sequences, listed by entry. Tags and fused reporters are not part of them. Lines headed by an entry give the natural chain unless they say otherwise; changes in a name come on top. Residues count along the entry.
# UniProt Q15116, 25-167 limits assumed: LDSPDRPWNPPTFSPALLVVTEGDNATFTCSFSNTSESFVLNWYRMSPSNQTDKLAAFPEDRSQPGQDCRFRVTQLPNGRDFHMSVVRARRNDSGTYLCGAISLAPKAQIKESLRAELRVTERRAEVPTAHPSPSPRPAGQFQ
# T1 construct: also called Human recombinant PD-1 protein; PD1-His recombinant protein
# Test: ELISA: hPD-1 immobilized, anti-human Fc peroxidase
binder,measurement,value
"Chimeric anti-PD1 fused on its heavy chain to Type II-protein B (4-1BBL) (other, not shown: small tags and cut ends, Bifunctional molecule) heavy: QIQLVQSGPELKKPGETVKISCKASGYTFTHYGMNWVKQAPGKGLKWMGWINTNTGEPTYAEEFKGRFAFSLETSASAAFLQINNLKNEDTATYFCAKEREPGMDSWGQGTSVTVSSASTKGPSVFPLAPCSRSTSESTAALGCLVKDYFPEPVTVSWNSGALTSGVHTFPAVLQSSGLYSLSSVVTVPSSSLGTKTYTCNVDHKPSNTKVDKRVESKYGPPCPPCPAPEFLGGPSVFLFPPKPKDTLMISRTPEVTCVVVDVSQEDPEVQFNWYVDGVEVHNAKTKPREEQFNSTYRVVSVLTVLHQDWLNGKEYKCKVSNKGLPSSIEKTISKAKGQPREPQVYTLPPSQEEMTKNQVSLTCLVKGFYPSDIAVEWESNGQPENNYKTTPPVLDSDGSFFLYSRLTVDKSRWQEGNVFSCSVMHEALHNHYTQKSLSLSPGKREGPELSPDDPAGLLDLRQGMFAQLVAQNVLLIDGPLSWYSDPGLAGVSLTGGLSYKEDTKELVVAKAGVYYVFFQLELRRVVAGEGSGSVSLALHLQPLRSAAGAAALALTVDLPPASSEARNSAFGFQGRLLHLSAGQRLGVHLHTEARARHAWQLTQGATVLGLFRVTPEIPAGLPSPRSE light: DVLLTQTPLSLPVSLGDQASISCRSSQNIVHANGNTYLEWYLQKPGQSPKLLIYKVSNRFSGVPDRFSGSGSGTDFTLKITRVEAEDLGVYYCFQGSHVPNTFGGGTKLEIKRTVAAPSVFIFPPSDEQLKSGTASVVCLLNNFYPREAKVQWKVDNALQSGNSQESVTEQDSKDSTYSLSSTLTLSKADYEKHKVYACEVTHQGLSSPVTKSFNRGEC",EC50,2.4 ng/mL

# Source: patent US20220025050A1 (OSE IMMUNOTHERAPEUTICS, published 2022)
